PubChem BioAssay AID1199 (EPA DSSTox, 2008)
Calls of active or inactive are those of the source.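 The calls were made as follows: active = a tumour-causing dose and a tumour site recorded for mice in at least one sex group; inconclusive = only government mouse studies exist and were judged inadequate; inactive = mouse studies exist but none gave tumours.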

Test system: mouse carcinogenicity bioassay, TD50 from CPDB
Experiment: DSSTox (CPDBAS) Carcinogenic Potency Database Summary Mouse Bioassay Results
Settings: TD50_Mouse_Note: no positive results; TargetSites_Mouse_Female: no positive results
From the text: The Carcinogenic Potency Database (CPDB) is a unique and widely used international resource of the results of over 6500 chronic, long-term animal cancer tests on over 1500 chemical substances. The CPDB provides easy access to the bioassay literature, with qualitative and quantitative analyses of both positive and negative experiments that have been published over the past 50 years in the general literature and by the National Cancer Institute/National Toxicology Program. The CPDB standardizes the diverse literature of cancer bioassays that vary widely in protocol, histopathological examination and nomenclature, and in the published author's choices of what information to provide in their papers. Results are reported in the CPDB for tests in rats, mice, hamsters, dogs, and nonhuman primates, and are based on the most positive result among all experiments for each sex-species. The DSSTox CPDBAS (all species) file incorporates data from the CPDB Summary Tables for the full list of over 1500 chemical substances tested in at least one species. Summary bioassay results for Mouse (TD50, tumor sites, male, female, both sexes) are provided in the CPDB Summary Tables and the DSSTox CPDBAS file for over 1000 chemical substances.
TD50 is a standardized quantitative measure of carcinogenic potency (analogous to an LD50) and is reported in the CPDB Summary Table for each species. […]

In the case of O=[N+]([O-])C(Cl)(Cl)Cl, the outcome is reported as “inactive; no positive results”.
